The target of the test is T1, 5-hydroxytryptamine receptor 2C (Rattus norvegicus, UniProt P08909).
T1 sequence (P08909 whole entry): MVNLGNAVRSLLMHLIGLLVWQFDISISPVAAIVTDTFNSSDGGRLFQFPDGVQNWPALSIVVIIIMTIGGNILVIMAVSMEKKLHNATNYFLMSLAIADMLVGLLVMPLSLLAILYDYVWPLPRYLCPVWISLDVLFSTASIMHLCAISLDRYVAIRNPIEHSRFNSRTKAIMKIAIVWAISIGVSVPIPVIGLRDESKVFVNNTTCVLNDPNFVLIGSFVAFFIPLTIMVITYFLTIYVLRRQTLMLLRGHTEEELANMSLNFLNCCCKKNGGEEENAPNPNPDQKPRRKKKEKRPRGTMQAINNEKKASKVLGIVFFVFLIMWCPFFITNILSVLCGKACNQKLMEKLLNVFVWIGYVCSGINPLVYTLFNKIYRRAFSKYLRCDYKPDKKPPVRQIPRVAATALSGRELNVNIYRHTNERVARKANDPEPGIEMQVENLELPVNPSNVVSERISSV
Nature of the test: Ability to displace [3H]mesulergine bound to 5-hydroxytryptamine 2C receptor in rat cortex. It counts as tissue-based. The procedure, abridged:
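Cortical membranes from male Wistar rats in 50 mM Tris HCl pH 7.7 with 10 μM pargyline, 4 mM CaCl2 and 0.1% ascorbic acid. […] Nonspecific binding with 1 μM mianserine. Filtration assay. Ki from IC50 via Cheng-Prusoff. Mean ± SEM, n=3.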

For 1 compound, Ki results are on record in ChEMBL document CHEMBL1131485, “Novel potent and selective central 5-HT3 receptor ligands provided with different intrinsic efficacy. 1. Mapping the central 5-HT3 receptor binding site by arylpiperazine derivatives” (J Med Chem, 1998).

Regarding `CN1C[C@@H](NS(=O)(=O)N(C)C)C[C@@H]2c3cccc4c3c(cn4C)C[C@H]21` [MESULERGINE], the Ki (in general, the dissociation constant of the complex between target and ligand, obtained from inhibition or displacement) worked out at 730 pM.
